Only a part is listed here, and it is no random draw. Activity calls are given as the source filed them.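 How the source made its calls: active means viability at or below 30% in both replicate assays; inconclusive means viability at or below 30% in just one of the two assays; inactive means the rest.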

The assay can be described thus: HUVEC growth inhibition – cell-based, human, primary screen (AID 575).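 Further: 100% = median of untreated cell wells with 0.1% DMSO on each plate.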 The note with it: HUVEC proliferation, CellTiter-Glo luminescence, 72 h; at 10 µM; stronger effect = lower value. The essentials:
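Test system: primary human umbilical vein endothelial cells. Quantity: 1250 cells/well. Compound: single 10 µM dose, 0.1% DMSO, from 5x medium stock. Timing: 72 h treatment at 37 °C. Detection: ATP-based CellTiter-Glo luminescent read. Benchmarks: vehicle and MePR control wells. Format: 384-well plates coated with collagen.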
For orientation: ATP-based viability assays read luminescence as a measure of living cells.
Consider `CN(C)CCOC(=O)C(O)(c1ccccc1)C1CCCCC1` (stereo not given), for which the viability (as a rule, a read-out of living cells in per cent, often relative to untreated cells) was inactive: 112%. As for `CP(=O)(Nc1ccc2c(c1)OCCO2)Oc1ccccc1` (stereo not given), the figure is inactive: 87.3%; as for `CP(=O)(Nc1ccccn1)Oc1ccccc1` (stereo not given), inactive: 97%. To `CP(=S)(Nn1cnnc1)Oc1ccccc1` (stereo not given) belongs inactive: 110%; to `Cc1ccc(C)c(NP(C)(=O)Oc2ccccc2)c1` (stereo not given), inactive: 106%.

Values taken from PubChem BioAssay AID575 (SRMLSC, 2007).
